Values quoted from earlier work, collected in paper PMC10494213 (iScience, 2023).

Conditions: pH 7.4; ref http://www.chemspider.com/Chemical; cited from earlier work

Which Dow does the source give for NC(=O)N1c2ccccc2C=Cc2ccccc21 [CMZ, Carbamazepine] here?
The Dow was 2.77.
